Measurements as given in patent US11559537B2, “Combination therapies using caspase-1 dependent anticancer agents and PGE2 antagonists” (Trustees of Tufts College, priority 2017, dated 2023).

Experiments:
DPP8/9 = settings: read-out: IIC50 DPP8/9
[1] = tested on: MB49 murine urothelial carcinoma; assay: MB49 efficacy studies; type: in vivo; settings: MB49 mouse tumor model, truncated dosing schedules

Structure (SMILES)	IC50 (DPP8/9)	antitumor activity [1]
CN(CB(O)O)C(=O)[C@@H](N)CCC(=O)O [compound 2408]	> 20 µM	
CC(C)(F)[C@H](N)C(=O)N1CCC[C@H]1B(O)O [compound 4268]		displays antitumor activity
